Measurements taken from article PMC6345968, “Structural basis for species-selective targeting of Hsp90 in a pathogenic fungus” (Nature Communications, 2019).

How the values were obtained:
[1] = tested on: S. cerevisiae expressing human Hsp90β; format: cell-based, Saccharomyces cerevisiae; settings: isogenic strains
Description: A critical consideration in the development of an effective antifungal is not just target binding, but also access to the target across microbial cell membranes and cell walls. Therefore, we evaluated the potency and selectivity of oxime analogs using drug susceptibility assays. We used strains of S. cerevisiae where both endogenous genes encoding isoforms of Hsp90 have been disrupted and growth is solely dependent upon C. albicans or human Hsp90 isoforms.
(§1) Antifungal tolerance and resistance were determined in flat bottom, 96-well microtiter plates using a modified broth microdilution protocol as described[8],[10]. All Hsp90 inhibitors were formulated in dimethyl sulfoxide (DMSO, Sigma Aldrich Co.); fluconazole was dissolved in sterile ddH2O. Each strain was tested in duplicate on at least two occasions. […] To test for fungicidal activity, cultures from MIC plates were spotted on YPD agar plates using a spotter (Frogger, V&P Scientific, Inc). Plates were photographed after 48 h of incubations at 30 °C.

[2] = tested on: C. albicans reporter strain CaLC922; format: cell-based, Candida albicans; settings: 6-h exposure
Experimental: In addition to effects on host immune function, we also examined activation of the evolutionarily conserved heat-shock response by CMLD013075.
Activation of the response in C. albicans was also measured in 96-well format using a reporter strain (CaLC922) engineered with HSP70 promoter elements driving expression of the LacZ gene from Streptococcus thermophilus integrated at the HSP70 locus with the URA3 marker for selection. […]

[3] = tested on: 3T3 cells; test: Mammalian cell toxicity, resazurin dye reduction; settings: 3-day culture
[4] = tested on: C. albicans SN95; test: Checkerboard with fluconazole then spotting on drug-free agar (fungicidal activity); format: cell-based, Candida albicans; settings: 48 h liquid culture, then drug-free solid medium
Experimental: as §1

C[C@@H]1C[C@H]2O[C@@H]2/C=C\C=C\C(=O)Cc2c(Cl)c(O)cc(O)c2C(=O)O1 [radicicol, reference compound]
activity compared with strain expressing C. albicans Hsp90 [1]: converse
heat-shock reporter activation [2]: neither ganetespib nor radicicol induced the reporter to a measurable extent
cytotoxicity to 3T3 relative to HEPG2 (less cytotoxic) [3]: at least 10 fold
fungicidal activity in combination with FL [4]: transformed the fungistatic azole into a fungicidal combination
